This assay deals with porcine aortic endothelial (PAE) cells. Description: Proliferation assay (ATPLITE), PAE. It counts as cell-based. The conditions noted are these: FIG. 13B, listed as apelin-13(F13A). The text has this:
Proliferation response profiles of apelin, salcut-NH2, salcut-Gly, and/or salcut-OH on a variety of endothelial and tumor cell lines or primary endothelial cells were obtained using the following method. Human blood vessel endothelial cells (HMEC-1), human primary microvascular dermal EC (dB1), human lymphatic endothelial cells (LEC), human mast cells (HMC-1), human breast cancer cells (MCF-7; T47D), human gastric cancer cells (HTB 103), human lung cancer cells (A549), monkey endothelial cells (CRL 1780), and porcine aortic endothelial cells (PAE) were seeded at 25,000 cells per well at 50 μl volume in appropriate media containing 0.5% serum in a 96 well plate. After overnight incubation the peptide was added in serum free media and cells were incubated for 3-5 days. To measure growth proliferation, the adenosine triphosphate ATPLITE™ one-step assay (PerkinElmer), which is based on firefly luciferase and has high sensitivity for quantification of viable cells, was used. Data were expressed as mean plus minus standard deviation. Statistical analyses were performed using Student's t-test, p values less than 0.05 were considered statistically significant.
Endothelial cell proliferation assays were performed as described above with both spontaneously immortalized porcine aortic endothelial (PAE) cells and SV40 immortalized human dermal microvascular endothelial (HMEC-1).
For orientation: ATP-based viability assays read luminescence as a measure of living cells.

Entries after “also recorded” stand apart in the source; their conditions may differ.

For the substance (Ala13)-apelin-13, the “effect of APJ antagonist on Salcut-NH2 regulated proliferation” value is listed as “but not salcut-NH2 mediated growth; also recorded: is not blocked by apelin-13(F13A)”.

For the origin of these results see patent US8946382B2, “Apelin peptides and methods of use” (The United States of America, as represented by the …, priority 2009, dated 2015).
